Biological target: Alpha-1B adrenergic receptor (Sus scrofa, UniProt Q70HQ0)

The chains behind the UniProt entries cited, without tags or fusion partners.
UniProt Q70HQ0, whole entry: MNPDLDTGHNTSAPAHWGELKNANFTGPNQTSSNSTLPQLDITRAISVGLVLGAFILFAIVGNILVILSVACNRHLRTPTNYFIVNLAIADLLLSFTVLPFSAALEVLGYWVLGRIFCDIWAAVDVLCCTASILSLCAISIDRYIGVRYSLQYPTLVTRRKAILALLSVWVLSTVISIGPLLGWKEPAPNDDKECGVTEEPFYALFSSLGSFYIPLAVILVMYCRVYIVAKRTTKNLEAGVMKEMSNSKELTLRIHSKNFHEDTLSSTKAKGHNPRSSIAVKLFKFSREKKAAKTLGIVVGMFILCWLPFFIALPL

SMILES | Ki [nM]
Cc1cc(C(C)(C)C)c(O)c(C)c1CC1=NCCN1 [SMR000059324] | 158
COC(=O)C1C(C)=NC(C)=C(C(=O)OCCCN2CCC(c3ccccc3)(c3ccccc3)CC2)C1c1cccc([N+](=O)[O-])c1 (configuration not stated) [CAS_1236] | 316
